{
  "source": "ChEMBL document CHEMBL3407331",
  "about": "“Discovery of AM-7209, a potent and selective 4-amidobenzoic acid inhibitor of the MDM2-p53 interaction” (J Med Chem, 2014)",
  "test_system": "HCT-116",
  "conditions": "Homo sapiens",
  "data": [
    {"smiles": "COc1cc(NC(=O)C[C@@]2(C)C[C@H](c3cccc(Cl)c3)[C@@H](c3ccc(Cl)c(F)c3)N([C@H](CS(=O)(=O)C(C)(C)C)C3CC3)C2=O)ccc1C(=O)O", "values": [
      {"measurement": "TGI", "value": "Dose-dependent effect"}
    ]}
  ]
}
